Molecular target: mouse A2AAR (Mus musculus, UniProt Q60613)
Test: Radioligand binding, recombinant mouse A2AAR in HEK-293 membranes
Details: read-out: Ki, mouse A2AAR; current results, ±SEM

Sequences of proteins named here, by UniProt entry; tags and fusion partners are left off.
UniProt Q60613, whole entry: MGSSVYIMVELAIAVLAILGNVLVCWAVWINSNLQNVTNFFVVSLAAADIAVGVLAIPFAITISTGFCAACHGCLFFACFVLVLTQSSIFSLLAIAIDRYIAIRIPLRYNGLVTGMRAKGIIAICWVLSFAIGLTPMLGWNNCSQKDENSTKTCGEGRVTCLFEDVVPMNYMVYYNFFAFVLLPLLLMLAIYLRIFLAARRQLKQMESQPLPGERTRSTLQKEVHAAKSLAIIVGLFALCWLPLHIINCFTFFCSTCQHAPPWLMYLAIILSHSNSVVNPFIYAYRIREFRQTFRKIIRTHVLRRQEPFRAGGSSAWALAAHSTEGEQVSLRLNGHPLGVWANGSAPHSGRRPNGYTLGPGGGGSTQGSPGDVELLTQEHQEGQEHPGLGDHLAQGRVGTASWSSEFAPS

Ki: 3.98 ± 0.358 µM
SMILES: O[C@@H]1[C@H](O)[C@@H](CCl)O[C@H]1n1cnc2c(NC3CC4CCC3C4)ncnc21 (mixture of isomers) [Cl-ENBA, (±)-5'-chloro-5'-deoxy-N^6-endo-norbornyladenosine]

— publication PMC5183552 (Neuropharmacology, 2016)
